The series has as its system primary rat hepatocytes. Nature of the series: Assessment of hepatocyte proliferation inhibition in cell fibers. The class given is cell-based. Particulars: after 10 mg mL^−1 for 24 h, followed up to 7 days of culture. How it is done:
To test this hypothesis, we used retrorsine, a compound that is standardly used to inhibit rat hepatocyte regeneration in vivo[31],[32] and we attempted to measure its IC50 value by obtaining its concentration-reaction curve. Practically, core–shell hydrogel microfibers were fabricated to encapsulate primary rat hepatocytes at the initial cell seeding density of 2.5 × 10^7 cells mL^−1. […] The proliferation ratio of primary hepatocytes in the experimental groups were calculated, and the concentration-reaction curve for retrorsine was obtained (Fig. 4).
Subsequently, we evaluated whether this inhibitory effect of retrorsine on hepatocyte proliferation is reversible or irreversible. […]
Counting primary rat hepatocytes and evaluating their viability per cell fiber were performed three times and averaged. […] The cell number of primary rat hepatocytes per cell fiber was counted by using cell-counting plate (WakenBtech, Japan). […]
Retrorsine (Sigma-Aldrich) was adopted as a compound that inhibits hepatocyte proliferation. […] The proliferation rate of the hepatocytes in the experimental groups was calculated by dividing the numbers of the hepatocytes that proliferated from 2 days of culture to 3 days of culture in the experimental groups with the ones in the control group. […]

With retrorsine, the “reversibility of inhibitory effect on hepatocyte proliferation” value is “proliferated after the removal of retrorsine”.
